Only a part is listed here, and it is no random draw. Some tests of the compounds listed are not included; inactive here does not mean inactive elsewhere. Active and inactive are the calls of the source.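 Rule for the calls: active = B-score of the integrated fluorescence ratio above library mean plus 3 SD, and starting fluorescence ratio within library mean plus 5 SD; inactive = the rest.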
The compounds below were run against Short transient receptor potential channel 6 (Mus musculus) (UniProt Q61143) (assay: mouse TRPC6 channel activators, primary screen, cell-based, HEK293, membrane potential dye (AID 2550;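 note: higher score means more depolarization so channel activation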)). Settings: HEK293-TRPC6 membrane potential dye fluorescence; at 10 µM.

Amino acid sequences for entries named in this document (tags omitted).
UniProt Q61143, whole entry: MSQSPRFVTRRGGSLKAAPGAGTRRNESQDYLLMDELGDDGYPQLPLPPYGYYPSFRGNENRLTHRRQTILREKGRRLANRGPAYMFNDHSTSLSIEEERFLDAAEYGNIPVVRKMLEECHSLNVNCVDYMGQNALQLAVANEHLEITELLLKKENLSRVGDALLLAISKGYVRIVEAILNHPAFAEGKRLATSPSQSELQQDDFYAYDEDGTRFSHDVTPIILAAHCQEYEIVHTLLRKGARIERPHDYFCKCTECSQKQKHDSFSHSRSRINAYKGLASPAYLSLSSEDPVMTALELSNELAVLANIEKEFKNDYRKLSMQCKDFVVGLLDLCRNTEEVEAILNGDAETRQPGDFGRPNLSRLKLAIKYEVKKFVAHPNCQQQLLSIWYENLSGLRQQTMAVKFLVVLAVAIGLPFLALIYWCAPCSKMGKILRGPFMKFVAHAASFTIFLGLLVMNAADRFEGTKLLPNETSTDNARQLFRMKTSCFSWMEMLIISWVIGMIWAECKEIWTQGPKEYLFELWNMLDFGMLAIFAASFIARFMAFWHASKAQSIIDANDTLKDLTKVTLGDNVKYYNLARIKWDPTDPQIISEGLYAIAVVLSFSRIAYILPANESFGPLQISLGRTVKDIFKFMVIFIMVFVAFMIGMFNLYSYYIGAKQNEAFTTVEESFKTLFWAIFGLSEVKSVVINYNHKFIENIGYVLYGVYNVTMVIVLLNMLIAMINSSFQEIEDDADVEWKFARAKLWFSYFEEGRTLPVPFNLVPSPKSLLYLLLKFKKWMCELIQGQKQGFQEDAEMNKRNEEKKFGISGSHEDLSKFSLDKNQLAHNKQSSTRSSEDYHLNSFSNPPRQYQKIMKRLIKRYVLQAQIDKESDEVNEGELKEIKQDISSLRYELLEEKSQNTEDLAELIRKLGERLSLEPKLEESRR

Row | Compound | outcome
1 | O=C(NCC1(N2CCCCC2)CCCCC1)c1cc([N+](=O)[O-])ccc1Cl | inactive
2 | CN1[C@@H]2CC[C@H]1CC(OC(=O)C(O)(c1ccccc1)c1ccccc1)C2 (some centres undefined) | inactive
3 | CCN(CC)CC(C)C(C)OC(=O)C(O)(c1ccccc1)c1ccccc1 (centres undefined) | inactive
4 | COc1cc(SC)ccc1C(=O)NCC1(N(C)C)CCCCC1 | inactive
5 | CC(C)N1C(=O)CC2(CCN(CCOC(=O)C(O)(c3ccccc3)c3ccccc3)CC2)C1=O | inactive
6 | Cc1ccc(C(=O)NCC2(N3CCCCC3)CCCCC2)cc1 | inactive
7 | Cc1ccccc1C(=O)NCC1(N2CCCCC2)CCCCC1 | inactive
8 | CN(C)c1ccc(C(=O)NCC2(N(C)C)CCCCC2)cc1 | inactive
9 | CN(C)C1CCCC1OC(=O)C(O)(c1ccccc1)c1ccccc1 (centres undefined) | inactive
10 | C=CCN1CCN(CCOC(=O)C(O)(c2ccccc2)c2ccccc2)CC1 | inactive
11 | O=C(NCC1(N2CCCCC2)CCCCC1)c1cc(F)c(F)cc1Cl | inactive
12 | COc1ccc(C(=O)NCC2(N(C)C)CCCCC2)cc1 | inactive
13 | CCN1CCCC(OC(=O)C2(O)c3ccccc3C=Cc3ccccc32)C1 (centres undefined) | inactive
14 | Cc1cc(C(=O)NCC2(N3CCCCC3)CCCCC2)ccc1[N+](=O)[O-] | inactive
15 | O=C(NCC1(N2CCCCC2)CCCCC1)c1cccc(Br)c1 | inactive
16 | CN(C)C1(CNC(=O)c2ccc(Br)cc2)CCCCC1 | inactive
17 | COc1cc(C(=O)NCC2(N(C)C)CCCCC2)c([N+](=O)[O-])cc1OC | inactive
18 | COc1cccc(C(=O)NCC2(N3CCCCC3)CCCCC2)c1 | inactive
19 | COc1ccc(Cl)cc1C(=O)NCC1(N(C)C)CCCCC1 | inactive
20 | O=C(NCC1(N2CCCCC2)CCCCC1)c1cccc(Cl)c1 | inactive
21 | O=C(OC1CN2CCC1CC2)C(CO)(c1ccccc1)c1ccccc1 (centres undefined) | inactive
22 | COc1ccc(Br)c(C(=O)NCC2(N3CCCCC3)CCCCC2)c1 | inactive
23 | CC(C)Oc1ccc(C(=O)NCC2(N(C)C)CCCCC2)cc1 | inactive
24 | CN(C)c1cccc(C(=O)NCC2(N(C)C)CCCCC2)c1 | inactive

Source: PubChem BioAssay AID2550 (Johns Hopkins Ion Channel Center, 2010)
